## Yeast mating assay 1: variants of the scFv Ab-14

Antigen: PDVDLGDISGINAS, a 14-residue peptide of the SARS-CoV-2 spike HR2 region.

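The library (AAYL49) carries one to three amino acid substitutions per variant, with no insertions or deletions. In AlphaSeq, yeast of one mating type display the scFv and yeast of the other type display the target. Pairs that bind mate more often; barcode pairs of the diploids are counted by sequencing. Read counts were normalised to the haploid input and turned into Kd by a linear fit to BCL2-family pairs of known affinity, for each replicate. The assay was run in three technical replicates.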

The variants keep the light chain, the linker and the frameworks of Ab-14 (scFv order VH, the linker GGGGSGGGGSGGGGS, VL).
VH: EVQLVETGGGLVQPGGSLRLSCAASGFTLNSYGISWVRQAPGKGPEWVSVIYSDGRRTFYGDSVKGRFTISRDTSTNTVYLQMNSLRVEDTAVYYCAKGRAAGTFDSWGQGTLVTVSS
VL: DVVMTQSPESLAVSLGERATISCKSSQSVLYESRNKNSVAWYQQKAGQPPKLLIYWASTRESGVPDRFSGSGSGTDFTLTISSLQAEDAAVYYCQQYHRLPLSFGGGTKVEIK

Variants are written as CDR1, CDR2 and CDR3 of the heavy chain (limits as in the source). Parent: GFTLNSYGIS, VIYSDGRRTFYGDSVK, GRAAGTFDS. The read-out is the apparent dissociation constant on a log10 scale (nM): the lower, the stronger. "nd" marks a missing value. The strain was present, yet no cells mated with the target were sequenced in that replicate, which points to weak or no binding. Three control strains display no target. For library AAYL49, 15% of the pairings with them gave a signal, with a median of 4.06 and one signal in twenty below 2.83, so weak values seen in few replicates may be background. The control count says in how many pairings with the empty strains this scFv gave a signal, with their mean in brackets. Parent in this assay: reference entry 0.65, copy in this library 4.11 (one replicate of three).

| CDR-H1 | CDR-H2 | CDR-H3 | log10 Kd, replicates | control signals |
|---|---|---|---|---|
| GFTLNSYFIS | VIYSDGRRTFYGDSVK | GRPAGTFDS | nd / nd / nd | 0/9 |
| RFTLNSYGIS | VIMSDGRRTFYGDSVK | GRAEGTFDS | nd / nd / 4.50 | 0/9 |
| GFTLNSQGIS | VIYSDGRRTFYGDEVK | GRAAGTFTS | nd / nd / nd | 0/9 |
| GFTLNSYGIS | VNYSDCRRTFYGDSVK | GRAAGTFDA | nd / nd / nd | 2/9 (3.54) |
| GFTLNSYGIS | VIYSDGRRTFNGDSVK | GRAAKTFDQ | nd / nd / nd | 0/9 |
| GFTLNSYGIS | HIYNDGRRTFYGDSVK | GLAAGTFDS | nd / 4.83 / nd | 1/9 (3.36) |
| GFTLISYGIS | VIYSHGRRTFYGDSVK | GRAAGTSDS | nd / nd / 4.02 | 3/9 (3.24) |
| GFTLNSHGNS | VIYSDGRRTFYGDSVK | GRAAGTFPS | nd / nd / nd | 0/9 |
| GFTLNSYGIS | VIYSDGRRGFYGDSVK | VRAAGTFAS | nd / nd / 5.16 | 5/9 (3.51) |
| GFTLNSYGIS | VIFSCGRRTFYGDSVK | GRWAGTFDS | nd / nd / nd | 0/9 |
| GFTLNSYGIS | VHYSDGRRTFYGDSVK | GRAAGTFDV | 3.32 / 4.48 / nd | 4/9 (3.22) |
| GFTLNSYGIS | VIYSDGRRTFYSDQVI | GRAAGTFDS | nd / nd / nd | 0/9 |
| GFTMNSYGIS | VIYSDGRRTFYGDSVK | GRAAGTQDS | nd / nd / 5.29 | 1/9 (2.96) |
| LFTQNSYGIS | GIYSDGRRTFYGDSVK | GRAAGTFDS | nd / nd / nd | 3/9 (3.70) |
| PFTLNSYGIS | VIYSDGRRTFYGDSAK | GRAAGTFDS | 3.21 / 2.47 / nd | 1/9 (3.62) |
| GFTLNSYGIS | VIYSDGRITFYGDSVK | GRAAGTFDH | nd / nd / nd | 0/9 |
| GETLLSYGIS | VIYSDGRRTCYGDSVK | GRAAGTFDS | 3.71 / nd / 5.19 | 2/9 (5.60) |
| GFTLNSYGIS | VIYSDGRRTFYGTSVK | GVAAGTFRS | 3.07 / 2.49 / 2.68 | 0/9 |
| GFTLNSYGIS | VIYPDGRRTFYGDSVK | GRAAGDFRS | 1.93 / 1.97 / 2.60 | 2/9 (3.57) |
| GRTLNSYGIS | VIYSPGRRTFYGDSVK | GRAAGTFDS | nd / nd / nd | 4/9 (4.27) |
| GYTLNIYGIS | VIYSDGRRTFYGDDVK | GRAAGTFDS | nd / 4.10 / nd | 1/9 (3.93) |
| WFTLNSYGIS | VIYSDGRGGFYGDSVK | GRAAGTFDS | nd / nd / nd | 5/9 (4.85) |
| GFTLNSYGIS | VIYSDGHRTFYGDSVK | GRAAGGCDS | nd / nd / nd | 0/9 |
| GFTLWSYGIS | VILSDGRRTFWGDSVK | GRAAGTFDS | nd / nd / nd | 0/9 |
| GFTLNYYGIS | VICSDGRRTFYGDSVK | GYAAGTFDS | nd / nd / nd | 0/9 |
| GHTLNSYGIS | FIYSDGRRTFYGDSVK | GRAIGTFDS | 3.47 / nd / nd | 0/9 |
| GFNLNSYGIS | VIYSDGRRTFYGDSVK | GFAIGTFDS | nd / nd / nd | 0/9 |
| GFTLNSYGIS | VIYYDGRRTFYGDSVK | GRAAGLFDS | nd / nd / nd | 0/9 |
| GFHLNSYGIS | HIYSDGRRTFYGDSVK | GHAAGTFDS | nd / nd / nd | 0/9 |
| GFTLNSYGVS | VIQSDGRRTFYWDSVK | GRAAGTFDS | 3.18 / nd / nd | 0/9 |
| HFTLNSYGIS | VIYSDGRRTFYGDSVK | GRAAFAFDS | 2.59 / 2.42 / 2.41 | 6/9 (4.08) |
| GCTLNSYGIS | VIYNDGRRTFYGDSVC | GRAAGTFDS | nd / 3.57 / nd | 2/9 (2.79) |
| GFTLNSYSIS | VHYSDGRRTFRGDSVK | GRAAGTFDS | 5.42 / nd / nd | 0/9 |
| GFTLNSYKKS | VIYSDGRLTFYGDSVK | GRAAGTFDS | nd / nd / nd | 2/9 (4.48) |
| GFTLNSYGSS | HIYSDGRRTFYGDSVK | GRAAGTKDS | nd / 4.32 / 6.13 | 3/9 (4.28) |
| GFRLNSYGIS | VIISDGRRTFYGFSVK | GRAAGTFDS | nd / 3.93 / nd | 2/9 (4.57) |
| GFTLNSYFES | PIYSDGRRTFYGDSVK | GRAAGTFDS | nd / nd / nd | 1/9 (4.36) |
| GFTLNSYGFS | RIYSDGRRTFYGDSVY | GRAAGTFDS | 4.97 / nd / nd | 1/9 (2.75) |

4 of these entries, quoted again:

| CDR-H1 | CDR-H2 | CDR-H3 | log10 Kd, replicates | control signals |
|---|---|---|---|---|
| GFTLNSYGIS | VIYSDGRRGFYGDSVK | VRAAGTFAS | nd / nd / 5.16 | 5/9 (3.51) |
| GFTLWSYGIS | VILSDGRRTFWGDSVK | GRAAGTFDS | nd / nd / nd | 0/9 |
| GFTLNSYFIS | VIYSDGRRTFYGDSVK | GRPAGTFDS | nd / nd / nd | 0/9 |
| WFTLNSYGIS | VIYSDGRGGFYGDSVK | GRAAGTFDS | nd / nd / nd | 5/9 (4.85) |

Reference: Engelhart et al. 2022, doi:10.1038/s41597-022-01779-4. File: FLAb, binding data.